From patent publication US11208376B2, “Use of a metal supplement in animal feed” (Nouryon Chemicals International B.V., priority 2009, dated 2021)

Key:
[1] = Precipitation test of copper sources with two-fold molar excess of phytic acid, soluble Cu by FAAS; type: physicochemical; conditions: for Soluble Cu(II) after subjecting complexed or chelated Cu(II) to a two-fold molar excess of phytic acid: one day at ambient temperature
Description: The following 3 concentrations of the final metal concentration were tested, i.e. high (H) at 25 mmol/kg, medium (M) at 5 mmol/kg, and low (L) at 0.5 mmol/kg. For each concentration and pH a separate phytic acid stock solution was prepared by diluting the calculated amount of phytic acid with de-mineralized water, setting the pH with diluted NH4OH solutions, and filling up with demineralized water up to the calculated amount. […] The pH was increased with NH4OH 2.5% up to pH 4.17. • Cu-GLDA-Na2 • 0.125 mol/kg, 12.608 g CuSO4.5H2O, and 0.1275 mol/kg, 36.619 g GL-45-SLA. […] The pH was adjusted to 4.97 with 0.5 M H2SO4. Then an equal number of 0.0125 mol/kg solutions were prepared by diluting the above solutions with demineralized water. […] On all 4 zinc-containing and 3 copper-containing solutions in total 6 precipitation tests were carried out, i.e. at levels H, M, and L and for each level at pH=4 and at pH=6. These tests were marked H4, H6, M4, M6, L4, and L6, respectively. In total 42 samples were obtained in this way. After standing for one day the precipitate was removed and the mother liquor was analyzed for its zinc or copper content by FAAS (Flame Atomic Absorption Spectroscopy). […] The total weight was exactly determined again. The 50 ml test tubes were filled according to Table 1 below. [table]

[2] = Precipitation test of zinc sources with two-fold molar excess of phytic acid, soluble Zn by FAAS; type: physicochemical; conditions: for Soluble Zn(II) after subjecting complexed or chelated Zn(II) to a two-fold molar excess of phytic acid: one day at ambient temperature
Description: The following 3 concentrations of the final metal concentration were tested, i.e. high (H) at 25 mmol/kg, medium (M) at 5 mmol/kg, and low (L) at 0.5 mmol/kg. For each concentration and pH a separate phytic acid stock solution was prepared by diluting the calculated amount of phytic acid with de-mineralized water, setting the pH with diluted NH4OH solutions, and filling up with demineralized water up to the calculated amount. […] The pH was not adjusted any further. Then an equal number of 0.0125 mol/kg solutions were prepared by diluting the above solutions with demineralized water. […] On all 4 zinc-containing and 3 copper-containing solutions in total 6 precipitation tests were carried out, i.e. at levels H, M, and L and for each level at pH=4 and at pH=6. These tests were marked H4, H6, M4, M6, L4, and L6, respectively. In total 42 samples were obtained in this way. After standing for one day the precipitate was removed and the mother liquor was analyzed for its zinc or copper content by FAAS (Flame Atomic Absorption Spectroscopy). […] The total weight was exactly determined again. The 50 ml test tubes were filled according to Table 1 below.

[3] = H4: pH 4, metal 25 mmol/kg, phytic acid 50 mmol/kg
[4] = H6: pH 6, metal 25 mmol/kg, phytic acid 50 mmol/kg
[5] = L4: pH 4, metal 0.5 mmol/kg, phytic acid 1 mmol/kg
[6] = L6: pH 6, metal 0.5 mmol/kg, phytic acid 1 mmol/kg
[7] = M4: pH 4, metal 5 mmol/kg, phytic acid 10 mmol/kg
[8] = M6: pH 6, metal 5 mmol/kg, phytic acid 10 mmol/kg
[9] = levels H, M, L, result in words

Substance	Soluble Cu(II) after subjecting complexed or chelated Cu(II) to a two-fold molar excess of phytic acid [1, 3]	Soluble Cu(II) after subjecting complexed or chelated Cu(II) to a two-fold molar excess of phytic acid [1, 4]	Soluble Cu(II) after subjecting complexed or chelated Cu(II) to a two-fold molar excess of phytic acid [1, 5]	Soluble Cu(II) after subjecting complexed or chelated Cu(II) to a two-fold molar excess of phytic acid [1, 6]	Soluble Cu(II) after subjecting complexed or chelated Cu(II) to a two-fold molar excess of phytic acid [1, 7]	Soluble Cu(II) after subjecting complexed or chelated Cu(II) to a two-fold molar excess of phytic acid [1, 8]	Appearance (clear solution or precipitate) of copper source combined with phytic acid [1, 9]	Soluble Zn(II) after subjecting complexed or chelated Zn(II) to a two-fold molar excess of phytic acid [2, 3]	Soluble Zn(II) after subjecting complexed or chelated Zn(II) to a two-fold molar excess of phytic acid [2, 4]	Soluble Zn(II) after subjecting complexed or chelated Zn(II) to a two-fold molar excess of phytic acid [2, 5]	Soluble Zn(II) after subjecting complexed or chelated Zn(II) to a two-fold molar excess of phytic acid [2, 6]	Soluble Zn(II) after subjecting complexed or chelated Zn(II) to a two-fold molar excess of phytic acid [2, 7]	Soluble Zn(II) after subjecting complexed or chelated Zn(II) to a two-fold molar excess of phytic acid [2, 8]	Appearance (clear solution or precipitate) of zinc source combined with phytic acid [2, 9]
Cu(Lysine)2	103 % (mol/mol)	102 % (mol/mol)	99 % (mol/mol)	97 % (mol/mol)	98 % (mol/mol)	98 % (mol/mol)	clear solution							
Zn(Lysine)2								22* % (mol/mol)	38* % (mol/mol)	95 % (mol/mol)	37 % (mol/mol)	49* % (mol/mol)	14* % (mol/mol)	immediately a precipitate was formed

Marks after values point to notes of the source that are not given here.
